Assay results taken from patent publication US6448405B1, “Steroid receptor modulator compounds and methods” (Ligand Pharmaceuticals Incorporated, priority 1994, dated 2002).

Chains of the proteins cited; added tags and fusions are not shown. Lines headed by an entry give the natural chain unless they say otherwise; changes in a name come on top.
UniProt P10275: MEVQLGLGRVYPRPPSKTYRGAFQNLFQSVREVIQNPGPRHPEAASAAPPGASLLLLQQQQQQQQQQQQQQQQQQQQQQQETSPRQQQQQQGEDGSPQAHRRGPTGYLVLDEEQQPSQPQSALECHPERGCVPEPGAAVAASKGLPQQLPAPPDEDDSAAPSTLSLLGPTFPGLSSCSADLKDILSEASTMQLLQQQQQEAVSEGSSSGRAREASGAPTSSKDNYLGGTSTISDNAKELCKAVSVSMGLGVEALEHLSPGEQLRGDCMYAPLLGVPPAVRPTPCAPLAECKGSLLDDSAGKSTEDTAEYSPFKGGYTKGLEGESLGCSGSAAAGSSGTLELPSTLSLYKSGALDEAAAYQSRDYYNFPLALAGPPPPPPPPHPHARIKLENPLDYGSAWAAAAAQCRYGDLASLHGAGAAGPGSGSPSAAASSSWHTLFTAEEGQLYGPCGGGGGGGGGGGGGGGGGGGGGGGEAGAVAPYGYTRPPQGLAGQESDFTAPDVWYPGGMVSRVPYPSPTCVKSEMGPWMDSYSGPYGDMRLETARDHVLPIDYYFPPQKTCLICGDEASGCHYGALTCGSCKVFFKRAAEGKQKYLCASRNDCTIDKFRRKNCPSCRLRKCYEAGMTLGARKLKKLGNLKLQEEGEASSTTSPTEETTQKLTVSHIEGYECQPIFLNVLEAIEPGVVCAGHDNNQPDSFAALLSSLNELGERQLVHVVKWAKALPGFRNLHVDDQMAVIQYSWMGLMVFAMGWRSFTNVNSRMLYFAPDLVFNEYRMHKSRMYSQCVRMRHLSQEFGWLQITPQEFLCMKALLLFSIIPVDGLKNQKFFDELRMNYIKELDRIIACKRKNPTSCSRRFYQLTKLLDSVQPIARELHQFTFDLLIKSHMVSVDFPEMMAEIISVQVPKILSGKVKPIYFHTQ

Molecular target: human AR (Homo sapiens, UniProt P10275)
Assay: AR whole cell binding assay, transfected COS-1 cells, 3H-DHT
Conditions: read-out: AR Binding Ki; competition with 1 nM 3H-DHT, COS-1 whole cells, three hours at 37° C.

“(R/S)-4-Ethyl-1,2,3,4-tetrahydro-1-methyl-8-pyranono[5,6-g]quinoline [Compound 416]” showed a Ki of 388 nM.
